Reference: patent publication US11072611B2, “Compounds and pharmaceutical compositions thereof for the treatment of inflammatory disorders” (Galapagos NV, priority 2013, dated 2021)

Target: hENPP2 (UniProtKB/SwissProt Sequence ref Q13822) (Homo sapiens (Human), UniProt Q13822)
Experiment: Human ENPP2 (hENPP2) biochemical assay, LPC as substrate
Settings: hENPP2, LPC (palmitoyl 16:0) as substrate
Protocol: The principle of the assay consists in quantifying the released choline with an enzymatic method using choline oxidase and peroxidase. Choline oxydation by choline oxydase releases betaine and peroxide. The latter is quantified in presence of HRP that converts the peroxide detection agent TOOS and 4-aminoantipyrine into quinoneimine dye. The appearance of quinoneimine dye is measured spectrophotometrically at 555 nm and is proportional to the amount of choline released by ENPP2. Inhibition of ENPP2 will result in a decrease of the signal.
Compound IC50 values are determined in a hENPP2 (UniProtKB/SwissProt Sequence ref Q13822) biochemical assay using LPC as substrate.
The enzyme is diluted in 50 mM Tris-HCl pH 8.5, 500 mM NaCl, 5 mM KCl, 10 mM CaCl2, 0.1% fatty acid free BSA in a total volume of 10 μL. the reaction is started by the addition of 10 μL of 150 μM LPC (palmitoyl 16:0) diluted in the same buffer as described above and the mixture is incubated at 37° C. for 30 min. The reaction is terminated and choline quantified by the addition of a 25 μL of a mixture containing 0.6 U/mL of choline oxidase, 0.6 U/mL of peroxydase, 1.8 mM TOOS, 1.2 mM amino-antipyrine, 20 mM EGTA (stop-developer solution) diluted in the buffer described above. Luminescence is read on the Envision after an incubation of 30 min at room temperature (Excitation 555 nm, excitation light=70%).

Question: How did the IC50 turn out when “{2-[4-(2-Ethyl-3-{[4-(4-fluoro-phenyl)-thiazol-2-yl]-methyl-amino}-imidazo[1,2-a]pyridin-6-yl)-piperazin-1-yl]-4,5-dihydro-oxazol-5-yl}-methanol [Compound 222]” was run?
Answer: 500 to 1000 nM
